Results taken from PubChem BioAssay AID2013 (Sanford-Burnham Center for Chemical Genomics, 2009).
The list shows a part of the results, in another mix than the full data. Potency and affinity values are given separately. Calls of active or inactive are those of the source.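 How the source made its calls: active means spots per cell inhibited over 60%, with over 100 cells counted and total cytoplasm intensity under 500,000; inconclusive means wells with under 100 cells, flagged as likely toxic; inactive means the rest.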

Protein sequences, listed by entry. Tags and fused reporters are not part of them. Lines headed by an entry give the natural chain unless they say otherwise; changes in a name come on top.
UniProt Q9Y2T6: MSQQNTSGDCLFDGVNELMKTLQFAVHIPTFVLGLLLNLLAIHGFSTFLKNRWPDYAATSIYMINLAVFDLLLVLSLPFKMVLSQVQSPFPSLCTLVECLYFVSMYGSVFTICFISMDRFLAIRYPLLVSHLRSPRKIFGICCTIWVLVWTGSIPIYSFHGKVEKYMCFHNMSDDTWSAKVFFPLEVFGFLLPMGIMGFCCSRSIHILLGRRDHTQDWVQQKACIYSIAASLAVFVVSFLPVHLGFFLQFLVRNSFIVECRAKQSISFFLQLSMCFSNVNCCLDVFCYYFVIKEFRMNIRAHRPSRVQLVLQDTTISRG

Biological target: G-protein coupled receptor 55 (Homo sapiens) (UniProt Q9Y2T6)
Experiment: GPR55 antagonists blocking LPI-driven arrestin recruitment, primary screen, imaging, U2OS, beta-arrestin-GFP, LPI agonist (AID 2013);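 further: U2OS cells stably carrying GPR55 and arrestin-GFP stimulated by 5 µM LPI near EC80; imaged beta-arrestin-GFP aggregate spots per cell after agonist stimulation; plate controls were LPI-stimulated DMSO wells for no effect and DMSO wells without LPI for full effect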
Settings: U2OS GPR55 beta-arrestin-GFP translocation imaging, LPI antagonism; at 10 µM; hits give high values

Compound	inhibition
O=[N+]([O-])c1cccc2n[nH]nc12	inactive: 12.3%
CC(=O)N1C2C3N(C(C)=O)C1C1N(C(C)=O)C(C(N1C(C)=O)N3C(C)=O)N2C(C)=O	inactive: 4%
CCc1nc2c(n1)c1c(non1O)c1c2no[n+]1[O-]	inactive: 29.1%
O=[N+]([O-])c1cc([N+](=O)[O-])c(CCNc2ccccc2)c([N+](=O)[O-])c1	inactive: -9.8%
Cc1ccc(NP(=O)(Oc2ccccc2)Oc2ccccc2)nc1	inactive: 3.3%
COc1ccc(C2=NCC(CBr)S2)cc1 (centres undefined)	inactive: -7.9%
CCC(C)N(CC(C)C)C(=S)SC(NC(C)=O)C(Cl)(Cl)Cl (centres undefined)	inactive: -2.8%
CCOC(=O)c1ccc(NC(=O)C(C)(CCl)SC)cc1 (centres undefined)	inactive: 0.3%
O=C(OC1CN2CCC1CC2)c1cccc([N+](=O)[O-])c1 (centres undefined)	inactive: 3%
O=C(Nc1ccncc1[N+](=O)[O-])c1ccc([N+](=O)[O-])cc1[N+](=O)[O-]	inactive: 16.4%
O=C(COc1ccccc1)OC1CN2CCC1CC2 (centres undefined)	inactive: 6.8%
COP1(=S)c2c(C)nn(CCC#N)c2N=C(c2ccc(F)cc2)N1C (centres undefined)	inactive: 3.1%
O=[N+]([O-])c1ccc(Nc2ccc(Oc3ccc([N+](=O)[O-])cc3[N+](=O)[O-])cc2)c([N+](=O)[O-])c1	inactive: 11%
O=P(Nc1ccccn1)(c1cccc2ccccc12)c1cccc2ccccc12	inactive: 12%
Cc1cc(SC(NC=O)C(Cl)(Cl)Cl)ncn1 (centres undefined)	inactive: 12.2%
CCOC(=O)Nc1cccc([As](=O)(O)O)c1	inactive: 6%
Cc1cc(SC(NC(=O)c2ccccc2)C(Cl)(Cl)Cl)nc(C(C)C)n1 (centres undefined)	inactive: -1.5%
CCCCOc1ccc(C(=O)NCC2(N3CCCCC3)CCCCC2)cc1OC	inactive: 14.2%
CCOC(=O)Nc1ccc([As](=O)(O)O)c(O)c1	inactive: -9.2%
O=[N+]([O-])c1cc([N+](=O)[O-])c(-c2ccn[nH]2)s1	inactive: -1.2%
CCN(CC)C(=S)SC(NC=O)C(Cl)(Cl)Cl (centres undefined)	inactive: 14.5%
CC(C)NC(=O)NP(=O)(Oc1ccccc1)Oc1ccccc1	inactive: 2.9%
CC(C)c1ccc(OP(=O)(Nc2ccccn2)Oc2ccccc2F)cc1 (centres undefined)	inactive: 0.9%
ClCCSc1nnc(-c2cccnc2)o1	inactive: -0.1%
Cc1ccc2nc3c(c(C)c2c1)CC(C(Cl)Cl)S3 (centres undefined)	inactive: 3.9%

Compound	inhibition
Cc1ccc(OP(=O)(Nc2ccc([N+](=O)[O-])cn2)Oc2ccc(C)cc2)cc1	inactive: 6.5%
C[As](=O)(O)c1cccc(C(=O)O)c1	inactive: 4.1%
O=[As](O)(c1ccc(O)cc1)c1ccccc1O	inactive: 0.2%
COc1ccc(N/C(=N/P(=O)(N2CCOCC2)N2CCOCC2)N2CCOCC2)cc1	inactive: 10.9%
COc1cc(I)ccc1[As](=O)(O)O	inactive: 6%
COc1ccc2nc(NP(=O)(c3ccccc3)c3ccccc3)sc2c1	inactive: 6%
Cc1cc(=O)[nH]c(N[N+](=O)[O-])n1	inactive: 7.2%
O=C(OC1CN2CCC1CC2)C12CC3CC(CC(C3)C1)C2 (centres undefined)	inactive: -7.9%
Cc1c2c(nc3ccccc13)SC(C(Cl)Cl)C2 (centres undefined)	inactive: -0.9%
CCOP(=O)(Nc1cccc2ccccc12)OCC	inactive: 6.2%
COc1cc(C2NCCC3(OCCO3)C2(C)C)cc(OC)c1OC (centres undefined)	inactive: 6.5%
CCCOP(=S)(Nc1nc(N)cc(=O)[nH]1)OCCC	inactive: 5.6%
Nc1cccc2c([As](=O)(O)O)cccc12	inactive: 13%
Cc1ccc(NCCc2c([N+](=O)[O-])cc([N+](=O)[O-])cc2[N+](=O)[O-])cc1	inactive: 3.6%
O=[As](O)(c1cccc(O)c1)c1cccc(O)c1	inactive: 9.7%
Cc1cccc(OCC(=O)OC2CN3CCC2CC3)c1 (centres undefined)	inactive: 11.8%
CS(=O)(=O)c1ccc(Cl)c(NC(=O)COC(=O)C(O)(c2ccccc2)c2ccccc2)c1	inactive: 12.5%
COc1cc(C(=O)NCC2(N3CCOCC3)CCCCC2)cc(Cl)c1OC(C)C	inactive: 7.3%
O=[As](O)(O)c1cccnc1	inactive: 11.9%
O=C(OC1CN2CCC1CC2)c1ccc(Cl)cc1 (centres undefined)	inactive: 2.1%
O=[N+]([O-])c1ccc2c(c1)nnn2O	inactive: 8.7%
CCOP1(=S)c2c(C)nn(CCC#N)c2N=C(c2ccc(F)cc2)N1C (centres undefined)	inactive: 2.8%
CN(C(=O)Cc1ccccc1)[C@@H]1CC[C@]2(CCCO2)C[C@H]1N1CCCC1	inactive: 4.5%
NC(=O)Nc1ccc([As](=O)(O)O)cc1	inactive: 2.4%
Nc1ccccc1[As](=O)(O)c1ccccc1	inactive: -7.2%

Compound	inhibition
O=C(O)COc1ccc([As](=O)(O)O)cc1[N+](=O)[O-]	inactive: -2.9%
CS(=O)(=O)c1cc([N+](=O)[O-])c2no[n+]([O-])c2c1	inactive: 9.6%
O=P(Nc1nccs1)(c1ccccc1)c1nc2ccccc2s1 (centres undefined)	inactive: -8.1%
O=P(Nc1nccs1)(Oc1ccccc1)Oc1ccccc1	inactive: -13.6%
CCOP1(=S)c2c(C)nn(CCC#N)c2N=C(c2ccccc2F)N1C (centres undefined)	inactive: 27.6%
O=P1(Nc2ccc(Br)cn2)COc2ccccc2OC1	inactive: 5%
O=[As](O)(c1cccs1)c1cccs1	inactive: 1.7%
Cc1ccc(OCC(=O)OC2CN3CCC2CC3)cc1 (centres undefined)	inactive: 1.8%
Nc1cccc([As](=O)(O)c2ccccc2)c1	inactive: 5.8%
O=P1(Nc2ncccn2)COc2ccccc2OC1	inactive: -1.9%
O=C(/C=C/c1ccccc1)OC1CN2CCC1CC2 (centres undefined)	inactive: 5.8%
CN(C)C1(CNC(=O)c2ccc(S(C)(=O)=O)cc2)CCCCC1	inactive: 4.5%
CC1CCC(C(C)C)C(OP(=O)(Nc2ccccn2)c2ccccc2)C1 (centres undefined)	inactive: 6.6%
Cc1ccc(C(=O)OC2CN3CCC2CC3)cc1 (centres undefined)	inactive: 2%
Cc1nn(-c2ccccc2)c2c1P(=O)(N1CCOCC1)N(C)C(c1ccccc1)=N2 (centres undefined)	inactive: 0.2%
O=[As](O)(c1ccccc1Br)c1ccccc1Br	inactive: 6%
CC(C)/C=N\N=C(\N)N[N+](=O)[O-]	inactive: -5%
CN(C(=O)Cc1ccc(Cl)c(Cl)c1)[C@@H]1CCCC[C@H]1N1CCCC1	inactive: -2.3%
CC(C)(C)C(=O)NC(Sc1ncccn1)C(Cl)(Cl)Cl (centres undefined)	inactive: -6.2%
Clc1n[nH]nc1-c1nn[nH][15n]1	inactive: 23.6%
CCOP(=O)(Nc1ccc(C)cn1)OCC	inactive: -1.7%
CCOP(=O)(NC(=NC(C)c1ccccc1)NC(C)c1ccccc1)OCC (centres undefined)	inactive: 10.4%
O=P1(Nc2ccccn2)COc2ccccc2OC1	inactive: -3.2%
CCC1=CC2Cc3nc4ccc(Cl)cc4c(N)c3C(C1)C2 (centres undefined)	inactive: 10.7%
